Experiment: MTDIA plasma pharmacokinetics after oral or i.p. dose in CD-1 mice
Settings: oral or i.p. dose 15 mg/kg

SMILES: CSC[C@H]1CN(Cc2c[nH]c3c(N)ncnc23)C[C@@H]1O [MTDIA, (3R,4S)-1-[(9-deazaadenin-9-yl)methyl]-3-hydroxy-4-(methylthiomethyl)pyrrolidine]
- Peak concentration of MTDIA in plasma: ~0.1 µM
- Time of peak plasma concentration: 1 h

— patent US10918641B2, “Use of MTAP inhibitors for the treatment of lung disease” (The University of North Carolina at Chapel Hill, priority 2015, dated 2021)
